This note sets out measurements from ChEMBL document CHEMBL1687933, “Synthesis and pharmacological evaluation of fluorine-containing D₃ dopamine receptor ligands” (J Med Chem, 2011).

The species named for this assay is Homo sapiens. Description: Selectivity ratio of Ki for human D2 receptor to Ki for human D3 receptor.

For the compound `O=C(NCCCCN1CCN(c2ccccc2OCCF)CC1)c1ccc(OCCOCCF)cc1`, the Ratio Ki came to 5.7.
